Results on one compound are retold here after PubChem BioAssay AID434979 (Johns Hopkins Ion Channel Center, 2010).

Only a part is listed here, and it is no random draw. Some tests of the compounds listed are not included; inactive here does not mean inactive elsewhere. Calls of active or inactive are those of the source.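 Rule for the calls: active = signal rise over 3 SD above mean of control wells given weak agonist, in both repeats and first screen; inactive = the rest.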

The assay has as its system TRPC4 (mouse), co-expressed with 5HT1a in HEK293. As to the kind of experiment: enhancement of serotonin-evoked TRPC4 response – cell-based, second counter screen, HEK293 TRPC4/5HT1a, Fluo-4, counter-screen for TRPC4 potentiator project, confirmation (AID 434979). To be noted: Fluo-4 calcium flux, at 10 µM, serotonin added at its EC20 dose. Background: Counterscreens check selectivity or assay interference.
Consider `CN(C)c1ccc(C(=O)NCC2(N(C)C)CCCCC2)cc1`, for which the result was inactive.
